Target: Potassium voltage-gated channel subfamily A member 5 (Homo sapiens, UniProt P22460)
Assay: Inhibition of human Kv1.5 channel by QPatch-clamp method

Chains of the proteins cited; added tags and fusions are not shown.
UniProt P22460, whole entry: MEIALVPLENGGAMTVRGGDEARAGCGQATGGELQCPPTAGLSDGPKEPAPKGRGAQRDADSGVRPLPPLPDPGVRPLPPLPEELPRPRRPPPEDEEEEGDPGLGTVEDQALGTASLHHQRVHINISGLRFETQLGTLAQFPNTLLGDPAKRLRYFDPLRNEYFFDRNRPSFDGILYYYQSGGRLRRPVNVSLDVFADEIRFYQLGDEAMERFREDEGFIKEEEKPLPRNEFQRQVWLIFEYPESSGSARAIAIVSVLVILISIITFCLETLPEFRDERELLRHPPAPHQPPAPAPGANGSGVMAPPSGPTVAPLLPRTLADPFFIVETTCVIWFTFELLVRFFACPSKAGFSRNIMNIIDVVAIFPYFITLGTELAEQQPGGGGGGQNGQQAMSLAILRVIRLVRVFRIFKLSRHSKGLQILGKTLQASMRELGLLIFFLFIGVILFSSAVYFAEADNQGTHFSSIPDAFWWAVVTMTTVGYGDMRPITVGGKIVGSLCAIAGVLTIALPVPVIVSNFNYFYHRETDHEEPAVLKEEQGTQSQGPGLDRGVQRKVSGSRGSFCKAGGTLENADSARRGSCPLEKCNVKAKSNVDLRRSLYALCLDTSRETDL

| Compound | IC50 [µM] |
| --- | --- |
| CC(C)(C)NC(=O)C1c2ccccc2C(=O)N1Cc1ccccc1-c1ccccc1 (racemic) | 0.9 |
| CC(C)(C)NC(=O)C1c2ccccc2C(=O)N1Cc1ccccc1-c1ccccc1 (single isomer, unassigned; enantiomer 1) | 1 |
| CC(C)(C)NC(=O)C1c2ccccc2C(=O)N1Cc1ccccc1-c1ccccc1 (single isomer, unassigned; enantiomer 2) | 3 |

Source: ChEMBL document CHEMBL3784945, “Isoindolinone compounds active as Kv1.5 blockers identified using a multicomponent reaction approach” (Bioorg Med Chem Lett, 2016)
